Screening data as filed in PubChem BioAssay.
DT40 TDP1 CPT – DT40-hTDP1 cell growth loss with CPT | chicken DT40 Tdp1-/-;hTDP1 cells + 20 nM CPT, ATP luminescence, 48 h | Potency, µM (doses to about 46.2 µM), for inactives: at the highest dose activity change, negative = growth inhibition, usual class: inhibitors | hit rate 12% among 420,000 | AID 686979; further: potency means the concentration at half of the fitted maximal effect; on the % scale 0 is the no-effect control and ±100 the full control effect; nearly all actives have a fitted effect of over 55% in size
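Chicken DT40 Tdp1-/- cells complemented with human TDP1, 400 cells/well, exposed to compounds plus 20 nM camptothecin for at least 48 h at 37 C; viability read as ATP content by CellTiter-Glo luminescence.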
DT40 TDP1 no CPT – qHTS for Inhibitors of human tyrosyl-DNA phosphodiesterase 1 (TDP1): qHTS in cells in absence of CPT; DT40 Tdp1-/- hTDP1 cells, no CPT, ATP luminescence, 48 h; Potency, µM (doses to about 46.2 µM), for the others: at the highest dose activity change, negative = growth inhibition, hits mostly inhibitors; hit rate 15% among 420,000; further: potency means the concentration at half of the fitted maximal effect; on the % scale 0 is the no-effect control and ±100 the full control effect; nearly all actives have a fitted effect of over 55% in size
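Readout: luminescence from CellTiter-Glo after 30 min in the dark at RT. Cells: DT40 Tdp1-/- with stable hTDP1, 400/well. Exposure: compounds alone, ≥48 hr, 37 °C.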
TDP1 block – TDP1 (human) enzyme inhibition; Q9NUW8; recombinant TDP1, AlphaScreen DNA substrate cleavage; Potency, µM (doses to about 130 µM), for inactives: at the top dose activity change, negative = inhibition, actives largely listed as inhibitors; hit rate 0.28% among 350,000; AID 485290; further: potency means the concentration at half of the fitted maximal effect; on the % scale 0 is the no-effect control and ±100 the full control effect; nearly all actives have a fitted effect of over 40% in size
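Recombinant human Tdp1 (E. coli-expressed, 1 nM final) preincubated with compounds 15 min at room temperature, then 5'-biotin/3'-phosphotyrosine-FITC DNA substrate (15 nM final) added for 5 min. AlphaScreen beads (10 ug/ml final) added 10 min; cleavage lowers signal.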
uPA generation – cell surface uPA generation inhibition. cell surface uPA generation assay, qHTS. Potency, µM (titrated, usually from 38.3 µM), inactives show top-dose activity change, negative = inhibition, actives largely listed as inhibitors. hit rate 0.31% among 330,000. AID 540303; active means well fitted inhibition curve with a large enough effect; inconclusive means small, poorly fitted or top-dose-only effect; inactive means no such curve, though single readings can be large or run the other way; tested in mouse RAW 264.7 cells; further: potency means the concentration at half of the fitted maximal effect; on the % scale 0 is the no-effect control and ±100 the full control effect; nearly all actives have a fitted effect of over 55% in size
miR-21 reporter – raises the signal of a miR-21 reporter; 340,000 tested, under 10 active; HeLa miR-21 FLuc reporter, luciferase, 48 h; Potency, µM (highest dose often 38.3 µM), without a hit: top-dose reporter change, positive = more light; active = well fitted rising curve with a large enough effect; inconclusive = small, poorly fitted or top-dose-only effect; inactive = no such curve, though single readings can be large or run the other way;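 also: % of control where 0% means no effect; miR-21 action dims this reporter so a rising signal means less miR-21 action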
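Using DMEM plus 10% FBS, HeLa miR-21-FLuc cells are incubated with test compounds (final up to about 40uM) for 48 hours; firefly luciferase signal is then imaged following reagent-mediated lysis.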
* hit, by the source's call; [ ] = another dose, or the depositor's remark. Shown are actives, neighbours in structure and some others; about 16% of the full set was active somewhere. Unless noted, the call rests on the fitted dose curve; in most records, active means well fitted curve in the direction sought with a large enough effect; inconclusive means small, poorly fitted or top-dose-only effect, or another doubt; inactive means no such curve, though single readings can be large; an effect the other way counts as inactive or inconclusive.

For COc1ccccc1CNCCCCCCNCCCCCCCCNCCCCCCNCc1ccccc1OC the results were DT40 TDP1 CPT 13µM*, DT40 TDP1 no CPT 6.5µM* and TDP1 block 15%[56.1 µM].
COc1ccccc1CNN was read as DT40 TDP1 CPT 2.6µM*, DT40 TDP1 no CPT 5.8µM*, TDP1 block 5%, uPA generation -3% and miR-21 reporter 1%.
CCCCCCCCNCCS(=O)(=O)NCc1ccccc1OC was read as DT40 TDP1 CPT -93%, DT40 TDP1 no CPT -87% and uPA generation -12%.
`COc1ccccc1CNc1ncccn1` gave DT40 TDP1 CPT 23%, DT40 TDP1 no CPT 0%, uPA generation -3% and miR-21 reporter -1%.
For Cc1cc(C)c(Cn2c(=O)n(-c3ccccc3Cl)c(=O)c3c(C)c(C(=O)N(C)C)sc32)c(C)c1 the results were DT40 TDP1 CPT -5%, DT40 TDP1 no CPT -2%, TDP1 block 0% and miR-21 reporter 3%.
`COc1ccc(C(C(=O)NC2CCCCC2)N(C(=O)CCl)c2cccc(Cl)c2)cc1` (configuration not stated) gave DT40 TDP1 CPT 2.3µM*, DT40 TDP1 no CPT 1.8µM*, TDP1 block -5%, uPA generation -7% and miR-21 reporter 4%.
For COc1ccc(C(C(=O)NC2CCCCC2)N(C(=O)CCl)c2ccc(C)cc2)cc1 (configuration not stated) the results were DT40 TDP1 CPT 1.8µM*, DT40 TDP1 no CPT 1.6µM*, TDP1 block -8%, uPA generation -16% and miR-21 reporter 6%.
COCCN(C(=O)CCCC(=O)Nc1ccccn1)C(C(=O)NC1CCCCC1)c1ccc(C)cc1 (configuration not stated) was read as DT40 TDP1 CPT -22%, DT40 TDP1 no CPT inconclusive, TDP1 block 2%, uPA generation 11% and miR-21 reporter -10%.
Screening COC(CN(C(=O)CCl)C(C(=O)NC1CCCCC1)c1ccc(C)cc1)OC (configuration not stated) returned DT40 TDP1 CPT 16µM*, DT40 TDP1 no CPT 13µM*, TDP1 block 0%, uPA generation -6% and miR-21 reporter -6%.
For COc1ccc(C(C(=O)NC2CCCC2)N(C(=O)c2ccoc2C)c2ccc(C)cc2)cc1 (configuration not stated) the results were DT40 TDP1 CPT 18µM*, DT40 TDP1 no CPT 16µM*, TDP1 block 6%, uPA generation 18% and miR-21 reporter 12%.
For CC(C)C[C@@H](CN)NC(=O)c1nc[nH]c1C(=O)N[C@@H](C)C(=O)CNC[C@H](CC(C)C)NC(=O)c1nc[nH]c1C(=O)N[C@@H](CC(=O)O)C(=O)O the results were DT40 TDP1 CPT 0%, DT40 TDP1 no CPT -2% and uPA generation -13%.
`Cc1cccc(NC(=O)Cn2c(=O)n(-c3ccccc3Cl)c(=O)c3c(C)c(C(=O)N(C)C)sc32)c1` gave DT40 TDP1 CPT inconclusive, DT40 TDP1 no CPT inconclusive, TDP1 block 4% and miR-21 reporter -1%.
For Cc1ccccc1Nc1oc(-c2ccccc2)nc1-c1ccccc1F the results were TDP1 block 4%.
Screening COc1ccc(C(C(=O)NC2CCCCC2)N(C(=O)CCl)c2ccc(OC)cc2)cc1 (configuration not stated) returned DT40 TDP1 CPT 1.8µM*, DT40 TDP1 no CPT 1.5µM*, TDP1 block 4%, uPA generation -7% and miR-21 reporter 0%.
COc1ccc(N(C(=O)Cc2cccs2)C(C(=O)NC2CCCC2)c2ccncc2)cc1 (configuration not stated) was read as DT40 TDP1 CPT inconclusive, DT40 TDP1 no CPT inconclusive, uPA generation -3% and miR-21 reporter -8%.

The last 3 records of the section above open the next one.
For Cc1ccccc1Nc1oc(-c2ccccc2)nc1-c1ccccc1F the results were TDP1 block 4%.
Screening COc1ccc(C(C(=O)NC2CCCCC2)N(C(=O)CCl)c2ccc(OC)cc2)cc1 (configuration not stated) returned DT40 TDP1 CPT 1.8µM*, DT40 TDP1 no CPT 1.5µM*, TDP1 block 4%, uPA generation -7% and miR-21 reporter 0%.
COc1ccc(N(C(=O)Cc2cccs2)C(C(=O)NC2CCCC2)c2ccncc2)cc1 (configuration not stated) was read as DT40 TDP1 CPT inconclusive, DT40 TDP1 no CPT inconclusive, uPA generation -3% and miR-21 reporter -8%.
CCN(CC)C(=O)c1ccccc1NS(=O)(=O)c1ccc(OC)c(C(=O)N2CCOCC2)c1 was read as DT40 TDP1 CPT 18%, DT40 TDP1 no CPT -2%, uPA generation -10% and miR-21 reporter 0%.
`CC(=O)N1c2ccc(S(=O)(=O)N3CCCC(C(=O)N4CCC(C)CC4)C3)cc2CC1C` (configuration not stated) gave DT40 TDP1 CPT 21µM*, DT40 TDP1 no CPT 16µM*, uPA generation -3% and miR-21 reporter 14%.
For CC(=O)N1c2ccc(S(=O)(=O)N3CCCC(C(=O)N4CCCC(C)C4)C3)cc2CC1C (configuration not stated) the results were DT40 TDP1 CPT 23µM*, DT40 TDP1 no CPT inconclusive, TDP1 block 2%, uPA generation -2% and miR-21 reporter 2%.
CC(=O)N1c2ccc(S(=O)(=O)NCCC(=O)N3CCCC(C)C3)cc2CC1C (configuration not stated) was read as DT40 TDP1 CPT 18µM*, DT40 TDP1 no CPT inconclusive, TDP1 block 2%, uPA generation -5% and miR-21 reporter 0%.
Screening COc1ccc(C(=O)NCC(=O)NCc2cc(=O)n(C)c(=O)n2C)cc1 returned DT40 TDP1 CPT -9%, DT40 TDP1 no CPT 4%, TDP1 block 0%, uPA generation -10% and miR-21 reporter 2%.
`Cc1c(NS(=O)(=O)c2cccc(C(=O)N3CCC(C(N)=O)CC3)c2)c(=O)n(-c2ccccc2)n1C` gave DT40 TDP1 CPT -6%, DT40 TDP1 no CPT -5%, TDP1 block 0% and uPA generation -1%.
For CC(C)(C)C(=O)CSc1ncnc2c1cnn2Cc1ccccc1 the results were DT40 TDP1 CPT -11%, DT40 TDP1 no CPT 15µM*, uPA generation 4% and miR-21 reporter -1%.
`COC(=O)CSc1ncnc2c1cnn2Cc1ccccc1` gave DT40 TDP1 CPT -1%, DT40 TDP1 no CPT -19%, TDP1 block 4%, uPA generation 4% and miR-21 reporter 1%.
O=C(CSc1ncnc2c1cnn2CCc1ccccc1)Nc1cccc(C(F)(F)F)c1 was read as DT40 TDP1 CPT inconclusive, DT40 TDP1 no CPT 23µM*, TDP1 block -2%, uPA generation 6% and miR-21 reporter -4%.
COc1ccc(N2CCN(CC(O)COC(c3ccc(F)cc3)c3ccc(F)cc3)CC2)cc1 (configuration not stated) was read as DT40 TDP1 CPT 18µM*, DT40 TDP1 no CPT 29µM*, uPA generation -11% and miR-21 reporter 4%.
For OC(CSc1ccccc1Cl)CN1CCN(c2ccc(F)cc2)CC1 (configuration not stated) the results were DT40 TDP1 CPT 18µM*, DT40 TDP1 no CPT 23µM*, TDP1 block 3% and miR-21 reporter 3%.
